{"sequences": {"note": "Sequences of proteins named here, by UniProt entry; tags and fusion partners are left off.", "UniProt P78527, whole entry": "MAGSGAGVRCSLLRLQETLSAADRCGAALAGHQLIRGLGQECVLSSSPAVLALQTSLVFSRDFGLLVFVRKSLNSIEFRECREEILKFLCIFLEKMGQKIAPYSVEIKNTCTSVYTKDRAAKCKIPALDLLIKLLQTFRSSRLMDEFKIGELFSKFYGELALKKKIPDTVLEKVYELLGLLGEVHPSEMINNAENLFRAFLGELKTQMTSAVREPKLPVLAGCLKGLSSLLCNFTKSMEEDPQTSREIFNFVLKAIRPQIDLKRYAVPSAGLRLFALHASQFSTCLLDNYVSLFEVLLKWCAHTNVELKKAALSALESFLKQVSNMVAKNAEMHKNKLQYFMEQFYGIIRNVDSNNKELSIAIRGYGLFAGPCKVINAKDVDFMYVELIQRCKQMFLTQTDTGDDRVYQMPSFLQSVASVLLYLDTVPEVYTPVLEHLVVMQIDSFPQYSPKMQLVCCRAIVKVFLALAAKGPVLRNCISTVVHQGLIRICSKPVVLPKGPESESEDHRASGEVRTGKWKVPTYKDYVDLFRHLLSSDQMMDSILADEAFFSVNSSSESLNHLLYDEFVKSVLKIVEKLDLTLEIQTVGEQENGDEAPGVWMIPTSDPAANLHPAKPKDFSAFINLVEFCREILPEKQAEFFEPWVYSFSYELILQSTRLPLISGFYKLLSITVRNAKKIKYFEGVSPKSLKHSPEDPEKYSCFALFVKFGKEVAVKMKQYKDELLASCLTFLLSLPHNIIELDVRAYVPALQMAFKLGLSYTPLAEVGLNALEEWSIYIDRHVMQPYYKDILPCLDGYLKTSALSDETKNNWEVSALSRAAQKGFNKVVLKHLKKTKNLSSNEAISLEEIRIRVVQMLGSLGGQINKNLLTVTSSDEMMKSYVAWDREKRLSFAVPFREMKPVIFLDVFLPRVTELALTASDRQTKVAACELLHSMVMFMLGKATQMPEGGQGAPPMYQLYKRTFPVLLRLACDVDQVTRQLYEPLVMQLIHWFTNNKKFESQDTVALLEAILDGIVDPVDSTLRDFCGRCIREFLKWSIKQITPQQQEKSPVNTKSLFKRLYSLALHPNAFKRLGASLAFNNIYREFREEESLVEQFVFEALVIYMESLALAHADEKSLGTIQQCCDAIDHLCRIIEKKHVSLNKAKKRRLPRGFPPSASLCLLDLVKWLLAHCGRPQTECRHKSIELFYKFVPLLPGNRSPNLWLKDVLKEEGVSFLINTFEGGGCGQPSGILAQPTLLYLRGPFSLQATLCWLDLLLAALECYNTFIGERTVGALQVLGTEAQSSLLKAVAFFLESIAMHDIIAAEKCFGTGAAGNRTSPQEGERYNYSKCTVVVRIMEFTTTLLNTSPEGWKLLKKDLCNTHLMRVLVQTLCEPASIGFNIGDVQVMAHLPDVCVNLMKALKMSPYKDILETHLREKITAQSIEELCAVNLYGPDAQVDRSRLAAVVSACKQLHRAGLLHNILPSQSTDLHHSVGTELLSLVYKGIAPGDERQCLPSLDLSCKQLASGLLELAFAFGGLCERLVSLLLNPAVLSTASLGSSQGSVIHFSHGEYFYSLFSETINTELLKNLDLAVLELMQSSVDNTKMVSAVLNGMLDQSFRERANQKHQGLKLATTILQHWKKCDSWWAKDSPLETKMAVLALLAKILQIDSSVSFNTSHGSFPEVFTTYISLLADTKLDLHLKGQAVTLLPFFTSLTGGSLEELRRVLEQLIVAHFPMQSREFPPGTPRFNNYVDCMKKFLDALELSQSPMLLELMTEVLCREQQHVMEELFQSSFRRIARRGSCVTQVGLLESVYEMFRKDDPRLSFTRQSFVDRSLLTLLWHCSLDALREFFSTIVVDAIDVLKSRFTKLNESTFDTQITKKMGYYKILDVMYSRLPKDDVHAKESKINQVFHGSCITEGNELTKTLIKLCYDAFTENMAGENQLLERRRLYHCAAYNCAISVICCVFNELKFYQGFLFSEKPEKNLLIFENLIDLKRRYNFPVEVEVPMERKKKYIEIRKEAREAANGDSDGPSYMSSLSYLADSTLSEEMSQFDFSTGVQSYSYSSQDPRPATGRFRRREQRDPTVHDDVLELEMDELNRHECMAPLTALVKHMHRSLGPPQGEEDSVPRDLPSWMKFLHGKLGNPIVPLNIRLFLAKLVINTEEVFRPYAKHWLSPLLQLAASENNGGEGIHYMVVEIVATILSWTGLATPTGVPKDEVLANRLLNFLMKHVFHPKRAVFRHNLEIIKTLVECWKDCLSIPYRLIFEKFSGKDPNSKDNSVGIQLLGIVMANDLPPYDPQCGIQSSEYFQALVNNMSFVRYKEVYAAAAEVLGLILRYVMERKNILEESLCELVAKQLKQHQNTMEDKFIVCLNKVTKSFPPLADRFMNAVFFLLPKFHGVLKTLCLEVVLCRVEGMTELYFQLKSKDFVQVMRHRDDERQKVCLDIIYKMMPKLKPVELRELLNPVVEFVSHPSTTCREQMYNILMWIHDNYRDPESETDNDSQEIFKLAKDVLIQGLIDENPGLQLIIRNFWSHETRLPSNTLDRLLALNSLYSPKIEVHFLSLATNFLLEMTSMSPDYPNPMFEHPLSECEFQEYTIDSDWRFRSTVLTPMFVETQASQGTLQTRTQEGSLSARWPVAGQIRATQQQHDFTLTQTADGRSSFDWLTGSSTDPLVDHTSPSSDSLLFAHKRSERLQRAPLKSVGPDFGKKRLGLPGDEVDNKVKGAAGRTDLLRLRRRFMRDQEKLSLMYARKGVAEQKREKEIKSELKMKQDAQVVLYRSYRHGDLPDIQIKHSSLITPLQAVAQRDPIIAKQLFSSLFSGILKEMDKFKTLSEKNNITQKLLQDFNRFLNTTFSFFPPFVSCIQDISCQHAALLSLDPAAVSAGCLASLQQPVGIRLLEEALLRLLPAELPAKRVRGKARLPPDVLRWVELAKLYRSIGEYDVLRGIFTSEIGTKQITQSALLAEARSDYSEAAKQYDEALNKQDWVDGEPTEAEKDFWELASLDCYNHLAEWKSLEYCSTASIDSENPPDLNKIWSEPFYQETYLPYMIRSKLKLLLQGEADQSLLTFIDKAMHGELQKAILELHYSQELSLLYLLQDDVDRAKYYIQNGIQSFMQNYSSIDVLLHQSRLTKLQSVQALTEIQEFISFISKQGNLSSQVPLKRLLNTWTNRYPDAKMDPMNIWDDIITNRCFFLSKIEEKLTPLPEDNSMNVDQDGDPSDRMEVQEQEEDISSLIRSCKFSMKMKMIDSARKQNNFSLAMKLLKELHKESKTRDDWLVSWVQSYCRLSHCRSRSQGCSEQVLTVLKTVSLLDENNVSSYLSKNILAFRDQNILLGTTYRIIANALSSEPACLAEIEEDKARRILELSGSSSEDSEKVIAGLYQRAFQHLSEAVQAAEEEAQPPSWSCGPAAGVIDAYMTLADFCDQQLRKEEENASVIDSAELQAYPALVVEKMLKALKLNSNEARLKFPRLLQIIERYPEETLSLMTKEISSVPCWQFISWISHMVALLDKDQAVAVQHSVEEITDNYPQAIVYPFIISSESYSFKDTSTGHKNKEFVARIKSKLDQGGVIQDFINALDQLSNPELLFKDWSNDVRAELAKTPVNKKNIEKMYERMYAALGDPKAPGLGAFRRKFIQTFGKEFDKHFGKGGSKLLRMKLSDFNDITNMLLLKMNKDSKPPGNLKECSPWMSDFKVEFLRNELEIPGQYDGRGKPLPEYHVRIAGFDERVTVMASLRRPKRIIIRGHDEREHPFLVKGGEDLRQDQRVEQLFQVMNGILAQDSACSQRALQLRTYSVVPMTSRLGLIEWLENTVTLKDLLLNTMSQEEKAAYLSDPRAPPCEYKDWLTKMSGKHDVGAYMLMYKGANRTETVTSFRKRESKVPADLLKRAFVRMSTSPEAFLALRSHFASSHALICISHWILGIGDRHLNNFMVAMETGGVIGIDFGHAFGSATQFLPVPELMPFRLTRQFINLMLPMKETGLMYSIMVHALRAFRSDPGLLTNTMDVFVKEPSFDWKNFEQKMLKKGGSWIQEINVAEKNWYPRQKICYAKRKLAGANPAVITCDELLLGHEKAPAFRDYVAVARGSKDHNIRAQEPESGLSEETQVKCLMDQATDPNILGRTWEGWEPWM"}, "source": "patent US20230165867A1", "about": "(CHENGDU BAIYU PHARMACEUTICAL CO., LTD., priority 2020, published 2023)", "origin": "cited, not measured here", "target": "DNA-PK (Homo sapiens, UniProt P78527)", "settings": "read-out: IC50 (DNA-PK); Sarkaria et al., 1998; cited from earlier work", "data": [{"smiles": "COC[C@H]1OC(=O)c2coc3c2[C@@]1(C)C1=C(C3=O)[C@@H]2CCC(=O)[C@@]2(C)C[C@H]1OC(C)=O", "note": "[Wortmannin]", "values": [{"measurement": "IC50", "result": "~15", "unit": "nM"}]}]}
